Like-named read-outs stand apart in the source and are kept apart here.
Key:
[1] = target: T1, kinase enzymes (Homo sapiens, UniProt P42336); assay: Enzyme binding assay (KINOMEscan, DiscoveRx), further kinases of Table A; conditions: Kd PIK3Cα_h, PIK3Cα_h
T1 construct: purchased DiscoveRx Corporation, San Diego (contract service, KINOMEscan)
Description: (§1) Enzyme Binding Assays (KINOMEscan®)
(§2) Kinase enzyme binding affinities of compounds disclosed herein were determined using the KINOMEscan technology performed by DiscoveRx Corporation, San Diego, Calif., USA (www.kinomescan.com). Table A reports the obtained Kd values (nM), with the Kd being the inhibitor binding constant: […]

[2] = target: T2, kinase enzymes (Homo sapiens, UniProt P48736); assay: as above; conditions: Kd PIK3Cγ_h, PIK3Cγ_h
T2 construct: purchased DiscoveRx Corporation, San Diego (contract service, KINOMEscan)
Description: as §1, §2

[3] = target: T3, kinase enzymes (Homo sapiens, UniProt P42345); assay: as above; conditions: Kd MTOR_h, MTOR_h
T3 construct: purchased DiscoveRx Corporation, San Diego (contract service, KINOMEscan)
Description: as §1, §2

[4] = target: T4, PI3Kδ (Homo sapiens, UniProt O00329); assay: Enzyme binding assay (KINOMEscan, DiscoveRx)
T4 construct: purchased DiscoveRx Corporation, San Diego (contract service, KINOMEscan)
T4 sequence (O00329 1-1044): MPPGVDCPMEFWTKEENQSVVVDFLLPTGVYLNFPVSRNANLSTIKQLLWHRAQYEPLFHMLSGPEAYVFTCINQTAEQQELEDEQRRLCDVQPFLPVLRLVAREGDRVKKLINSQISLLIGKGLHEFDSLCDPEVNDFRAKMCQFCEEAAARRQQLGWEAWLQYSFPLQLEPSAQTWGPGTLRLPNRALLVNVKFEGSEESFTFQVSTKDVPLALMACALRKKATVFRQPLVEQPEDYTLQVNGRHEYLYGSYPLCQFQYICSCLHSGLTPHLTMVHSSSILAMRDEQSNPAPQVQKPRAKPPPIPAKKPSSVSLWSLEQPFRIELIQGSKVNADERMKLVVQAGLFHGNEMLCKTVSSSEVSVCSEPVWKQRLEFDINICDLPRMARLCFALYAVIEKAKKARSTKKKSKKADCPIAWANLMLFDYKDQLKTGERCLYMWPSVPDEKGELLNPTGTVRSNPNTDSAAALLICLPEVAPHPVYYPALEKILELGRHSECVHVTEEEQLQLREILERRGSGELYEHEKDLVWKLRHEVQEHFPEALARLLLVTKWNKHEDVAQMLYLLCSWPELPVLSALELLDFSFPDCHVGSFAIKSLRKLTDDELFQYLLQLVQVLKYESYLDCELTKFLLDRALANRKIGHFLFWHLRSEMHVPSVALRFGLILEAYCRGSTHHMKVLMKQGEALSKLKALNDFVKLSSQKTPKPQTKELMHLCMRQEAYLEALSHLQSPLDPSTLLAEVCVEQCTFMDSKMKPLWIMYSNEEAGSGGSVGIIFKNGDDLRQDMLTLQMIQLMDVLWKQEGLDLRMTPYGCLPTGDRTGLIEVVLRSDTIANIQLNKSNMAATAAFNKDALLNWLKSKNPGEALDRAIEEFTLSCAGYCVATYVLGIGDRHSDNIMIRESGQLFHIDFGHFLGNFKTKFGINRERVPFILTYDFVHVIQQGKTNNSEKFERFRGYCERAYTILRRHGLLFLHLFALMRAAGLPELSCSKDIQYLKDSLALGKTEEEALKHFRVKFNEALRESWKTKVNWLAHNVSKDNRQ
Description: as §1
Kinase enzyme binding affinities of compounds disclosed herein were determined using the KINOMEscan technology performed by DiscoveRx Corporation, San Diego, Calif., USA (www.kinomescan.com).

[5] = PIK3Cδ_h, read-out: Kd PIK3Cδ_h

Structure (SMILES)	Kd [4, 5]	Kd ([4]; Kd PIK3Cδ_h)	further results
CNCCN(C)C(=O)c1cc(C2CCCN2c2cc(F)cc(F)c2)c2nc(N3CCOCC3)cnc2c1 (stereo not drawn) [Compound 18]			Kd [1]: 0.005 µM; Kd [2]: 0.037 µM; Kd [3]: 21.9 µM
CC(Nc1cc(F)cc(F)c1)c1cc(C(=O)NCCN(C)C)cc2ncc(N3CCOCC3)nc12 (stereo not drawn) [Compound 183]	0.102 µM		
C[C@@H](Nc1cc(F)cc(F)c1)c1cc(C(=O)NCCN(C)C)cc2ncc(N3CCOCC3)nc12 [Compound 184]	0.057 µM		
C[C@@H](Nc1cc(F)cc(F)c1)c1cc(C(=O)NCCN(C)C)cc2ncc(N3CCOCC3)nc12 [Compound 184a]		0.074 µM	
C[C@@H](Nc1cc(F)cc(F)c1)c1cc(C(=O)NCCN(C)C)cc2ncc(N3CCOCC3)nc12 [Compound 184b]		0.066 µM	
C[C@@H](Nc1cc(F)cc(F)c1)c1cc(C(=O)NCCN(C)C)cc2ncc(N3CCOCC3)nc12 [Compound 184c]		0.054 µM	
C[C@H](Nc1cc(F)cc(F)c1)c1cc(C(=O)NCCN(C)C)cc2ncc(N3CCOCC3)nc12 [Compound 185]	5.37 µM		

Source: patent publication US10526316B2, “Quinoxaline and pyridopyrazine derivatives as PI3Kβ inhibitors” (Janssen Pharmaceutica NV, priority 2015, dated 2020)
